Reference: ChEMBL document CHEMBL1135731, “Synthesis and nicotinic binding studies on enantiopure diazine analogues of the novel (2-chloro-5-pyridyl)-9-azabicyclo[4.2.1]non-2-ene UB-165” (J Med Chem, 2002)
pKi: −log10 of the molar value.

Sequences of proteins named here, by UniProt entry; tags and fusion partners are left off. Residues count along the entry.
UniProt Q05941, 23-502 limits assumed: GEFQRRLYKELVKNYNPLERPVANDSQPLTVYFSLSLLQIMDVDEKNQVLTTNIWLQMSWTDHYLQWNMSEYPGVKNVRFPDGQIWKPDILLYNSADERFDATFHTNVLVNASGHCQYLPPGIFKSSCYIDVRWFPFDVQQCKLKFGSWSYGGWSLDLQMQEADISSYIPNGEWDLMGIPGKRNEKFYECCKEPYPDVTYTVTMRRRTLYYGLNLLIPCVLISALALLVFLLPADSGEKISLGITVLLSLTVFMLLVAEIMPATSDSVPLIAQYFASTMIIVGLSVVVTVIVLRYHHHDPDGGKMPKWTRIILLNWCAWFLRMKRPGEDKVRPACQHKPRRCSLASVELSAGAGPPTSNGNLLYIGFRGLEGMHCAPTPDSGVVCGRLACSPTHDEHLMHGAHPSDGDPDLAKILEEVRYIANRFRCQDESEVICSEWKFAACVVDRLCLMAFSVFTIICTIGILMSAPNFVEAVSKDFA
UniProt P09483, 31-630 limits assumed: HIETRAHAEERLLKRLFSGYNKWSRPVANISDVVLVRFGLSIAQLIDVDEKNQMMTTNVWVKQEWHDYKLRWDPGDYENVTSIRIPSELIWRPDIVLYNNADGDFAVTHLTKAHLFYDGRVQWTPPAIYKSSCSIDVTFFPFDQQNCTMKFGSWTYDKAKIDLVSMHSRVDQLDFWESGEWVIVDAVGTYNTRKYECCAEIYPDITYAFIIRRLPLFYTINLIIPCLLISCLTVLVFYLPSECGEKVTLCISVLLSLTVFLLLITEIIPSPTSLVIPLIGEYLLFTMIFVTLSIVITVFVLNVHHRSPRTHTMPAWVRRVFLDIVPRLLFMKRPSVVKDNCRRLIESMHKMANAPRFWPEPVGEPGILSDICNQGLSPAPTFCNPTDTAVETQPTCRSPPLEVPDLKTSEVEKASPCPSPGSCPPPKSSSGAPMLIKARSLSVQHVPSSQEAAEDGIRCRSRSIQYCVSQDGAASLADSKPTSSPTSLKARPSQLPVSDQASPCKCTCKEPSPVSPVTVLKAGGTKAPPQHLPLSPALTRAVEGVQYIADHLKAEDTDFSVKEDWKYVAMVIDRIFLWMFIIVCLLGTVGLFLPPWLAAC
UniProt P12390, 25-500 limits assumed: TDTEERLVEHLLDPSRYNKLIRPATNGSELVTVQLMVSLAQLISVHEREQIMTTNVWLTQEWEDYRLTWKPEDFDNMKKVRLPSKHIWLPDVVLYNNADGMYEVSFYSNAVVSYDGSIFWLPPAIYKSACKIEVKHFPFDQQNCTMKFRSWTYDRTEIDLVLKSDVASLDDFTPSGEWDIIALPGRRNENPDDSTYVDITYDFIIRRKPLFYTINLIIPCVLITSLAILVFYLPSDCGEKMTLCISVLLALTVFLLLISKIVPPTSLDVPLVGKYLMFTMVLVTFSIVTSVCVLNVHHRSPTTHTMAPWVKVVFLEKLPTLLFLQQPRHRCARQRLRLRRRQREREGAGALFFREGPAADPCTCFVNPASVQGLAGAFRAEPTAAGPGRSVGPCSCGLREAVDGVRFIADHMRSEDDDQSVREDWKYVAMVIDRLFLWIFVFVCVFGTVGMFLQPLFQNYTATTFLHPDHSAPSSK

Assays:
[1] = target: Neuronal acetylcholine receptor subunit alpha-7 (Rattus norvegicus, UniProt Q05941); assay: Binding affinity to subtype Nicotinic acetylcholine receptor alpha7 using [3H]-MLA as radioligand in rat brain
[2] = target: Neuronal acetylcholine receptor; alpha4/beta2 (Rattus norvegicus, UniProt P09483+P12390)

CC(=O)C1=CCCC2CCC1N2 (configuration not stated)
pKi [1]: 7.05
pKi [2]: 8.96
